# Values of other authors, collected in patent US9724544B2, “Vitamin D promoting sunscreen” (priority 2009, dated 2017).
# Some compounds may have been tested in ways that are not shown here.
# Settings: approximately 295 to 315 nm; cited from earlier work
substance,measurement,value
triethanolamine salicylate,absorption in the vitamin D producing range,high percentage
